Laboratory results published in patent publication US20120009152A1, “NITRIC OXIDE DONORS FOR TREATMENT OF DISEASE AND INJURY” (priority 2002, published 2012).

Test system: cGMP
Experiment: cGMP measurement in brain tissue
Type: in vivo, rat
Conditions: nonischemic rats; sildenafil 2 or 5 mg/kg for 7 days; vs control group
Method: Ischemic rats (n=9) were treated with the same volume of tap water as a control group. Functional tests were performed and body weight was measured before ischemia and at 4, 7, 14, 21, and 28 days after onset of MCA occlusion. All rats were killed 28 days after MCA occlusion. […] These rats were killed 1 hour after the last treatment for measurements of brain levels of cGMP. […] Reverse transcription (RT)-polymerase chain reaction (PCR) was performed to detect PDE5 in brain tissue. Levels of cGMP were measured with the use of a commercially available low-pH immunoassay kit (R&D Systems Inc). The sensitivity of the assay was approximately 0.6 pmol/mL for the nonacetylated procedure. The brain was rapidly removed, and the cortex and the cerebellum were separated.

`CCCc1nn(C)c2c(=O)[nH]c(-c3cc(S(=O)(=O)N4CCN(C)CC4)ccc3OCC)nc12` [Sildenafil] was tested, and the “cortical levels of cGMP” value was “significantly (P=0.05) increased the cortical levels of cGMP”.
